## scFv variants of Ab-95 (light chain) against a SARS-CoV-2 spike peptide

Source: Engelhart et al. 2022 (doi:10.1038/s41597-022-01779-4), MIT Lincoln Laboratory and A-Alpha Bio; data file from the FLAb repository.

Binding partner: SARS-CoV-2 spike HR2 peptide, sequence PDVDLGDISGINAS.

Each scFv is VH, three GGGGS repeats, VL, as in the parent Ab-95, and differs from it in the CDRs of the light chain only.
VH: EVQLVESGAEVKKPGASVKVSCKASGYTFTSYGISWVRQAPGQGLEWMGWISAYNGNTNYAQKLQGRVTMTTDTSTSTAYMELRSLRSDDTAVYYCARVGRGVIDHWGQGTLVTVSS
VL: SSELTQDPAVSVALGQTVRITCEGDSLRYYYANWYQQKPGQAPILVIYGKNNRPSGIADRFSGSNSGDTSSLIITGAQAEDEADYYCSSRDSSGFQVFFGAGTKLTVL

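Phage display of a naive human antibody library on the peptide gave the parent. Variants in AAYL52 differ from the parent at up to three CDR positions; double and triple changes were sampled at random. The assay is AlphaSeq: two haploid yeast populations carry antibody and antigen on their surface. Binding brings cells together so that they mate, and sequencing counts the barcode pairs among the diploids. Scores were corrected for input abundance and mapped to Kd with protein pairs of known affinity run in the same pool. Mating was done three times.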

Each variant is given by its three light chain CDRs, as the data file delimits them; those of the parent are EGDSLRYYYAN, GKNNRPS, SSRDSSGFQVF. Every variant below is changed at S55 of the VL (sequential numbering). Values are apparent Kd, the geometric mean of the replicates that gave a signal; lower means stronger binding. "nd" means that the variant was in the library but no mating with the target was seen in any replicate; the authors take this as a sign of poor binding, and no number exists. Three control strains display no target. For library AAYL52, 28% of the pairings with them gave a signal, with a median of 8.2 µM and one signal in twenty below 800 nM, so weak values seen in few replicates may be background.

For EGDSLRLYYAN | GKNNRPI | SSRDSSWFQVF, the assay gave 2.9 µM (2 of 3 replicates). With EGDSVRYYYAN | GKNNRPR | SSRDHSGFQVF the result was nd (0 of 3 replicates). With EEDSLRPYYAN | GKNNRPA | SSRDSSGFQVF the result was 480 nM (3 of 3 replicates). With YGDSLRYYYAN | GKNNRPA | SSRDSSGPQVF the result was 2.7 µM (3 of 3 replicates). For EGDSLRYYYAN | GRNNRPG | SSRDSSGFQVF, the assay gave 320 nM (3 of 3 replicates). Variant EGDSLRYYYAN | GFNNRPH | SSADSSGFQVF gave 120 µM (1 of 3 replicates). With EGDSLRYNYAN | GKNNRPY | WSRDSSGFQVF the result was 100 nM (3 of 3 replicates).

Variant ERDSLRYYYAN | GKNNRVA | SSRDSSGFQVF showed 210 µM (3 of 3 replicates). Variant EGDSLRYCYAN | GKNNRPI | SSRDSSGFQVF showed 4.2 µM (2 of 3 replicates). For EGDSLRYYYAN | GKNNRPM | SSRDSSGWQVF, the assay gave 730 nM (3 of 3 replicates). Variant EGDSLRYYYAN | FKNNRPL | SSRDSSYFQVF showed 3.0 µM (1 of 3 replicates). Variant EGDSLRYYYAN | GKNNRPM | SSRDSSGFQVF showed 85 nM (3 of 3 replicates). Variant EGDSLRYYYHN | QKNNRPL | SSRDSSGFQVF showed nd (0 of 3 replicates). For EGFSLRYYYAN | GDNNRPD | SSRDSSGFQVF, the assay gave 30 nM (3 of 3 replicates).

Variant EGDSTRYYYAN | GKNNRPI | YSRDSSGFQVF gave 12 µM (3 of 3 replicates). For EIDSLRYYYAN | GKNNRPR | SSRDSSGFQVF, the assay gave 1.3 µM (3 of 3 replicates). Variant EGDSLRYYYIN | GKNNRPC | KSRDSSGFQVF showed nd (0 of 3 replicates). For EGDILRYYYAN | GKNNRPE | NSRDSSGFQVF, the assay gave 5.1 µM (2 of 3 replicates). Variant EGDSLRGYYAN | GKNNRPG | SSRDSSGEQVF showed 800 nM (3 of 3 replicates). For EGDSLRYYYAN | GKNNRWW | SSRDSSGFQNF, the assay gave 16 µM (2 of 3 replicates). Variant EGRSVRYYYAN | GKNNRPG | SSRDSSGFQVF showed 110 nM (3 of 3 replicates).

With ENDSLRYYYAN | GKNNRPF | SSRDSSAFQVF the result was 10 µM (3 of 3 replicates). For FGDSLRYYYDN | GKNNRPK | SSRDSSGFQVF, the assay gave 3.0 µM (2 of 3 replicates). For EGDSLRYYYAN | GKNNRPF | SSRNSSGFQRF, the assay gave 3.8 µM (3 of 3 replicates). Variant EGDSLRYYYAN | GKNNMPG | SSRDSSGFQVR gave 2.8 µM (3 of 3 replicates). With ECDSLRYAYAN | GKNNRPY | SSRDSSGFQVF the result was 710 nM (3 of 3 replicates). Variant TGDSLRYYYAN | GKNNRPI | SSRDSWGFQVF showed 240 nM (3 of 3 replicates). Variant EGDSLQYYYAN | GKNRRPL | SSRDSSGFQVF showed 2.3 µM (3 of 3 replicates).

Variant EGDSLRYYYAN | GKNNRAQ | SSRMSSGFQVF showed 4.5 µM (2 of 3 replicates). For EGDSLRYYYAN | GKNNEPN | SSRDSSGFQVF, the assay gave 14 µM (2 of 3 replicates). Variant EGDSLRYYMAN | GKNNRPC | SSRDSSGFLVF gave 1.1 µM (3 of 3 replicates). Variant EGDSLKYYYAN | GKNNRPT | SSRDSSFFQVF gave 290 nM (3 of 3 replicates). Variant EGDSLRYYYAN | GLNNRPD | SSRDSSGFQPF gave 250 nM (3 of 3 replicates). Variant EGDLLRAYYAN | GKNNRPC | SSRDSSGFQVF gave 5.7 µM (1 of 3 replicates).

Extract of 4 entries:

{"CDR-L1": "TGDSLRYYYAN", "CDR-L2": "GKNNRPI", "CDR-L3": "SSRDSWGFQVF", "Kd (apparent)": "240 nM", "replicates with signal": "3/3"}
{"CDR-L1": "EGDSLRYYYAN", "CDR-L2": "GFNNRPH", "CDR-L3": "SSADSSGFQVF", "Kd (apparent)": "120 µM", "replicates with signal": "1/3"}
{"CDR-L1": "EIDSLRYYYAN", "CDR-L2": "GKNNRPR", "CDR-L3": "SSRDSSGFQVF", "Kd (apparent)": "1.3 µM", "replicates with signal": "3/3"}
{"CDR-L1": "EGDSLRGYYAN", "CDR-L2": "GKNNRPG", "CDR-L3": "SSRDSSGEQVF", "Kd (apparent)": "800 nM", "replicates with signal": "3/3"}